Data taken from patent US6443945B1, “Laser assisted pharmaceutical delivery and fluid removal” (Transmedica International, Inc., priority 1993, dated 2002).

Experiment: Permeation of radiolabelled drugs through Er:YAG laser-irradiated human skin in Franz diffusion cells
Assay type: in vitro ADME
Conditions: single Er:YAG pulse, 2 mm, 254 mJ lidocaine, 285 mJ γ-interferon, 274 mJ insulin, 37° C.

With Insulin the “Permeability Constant, kp” value was 11.3 +/− 0.93 ×10^−3 cm/hr.
